Results taken from US6759384B1, “Factor Xa inhibitors” (Aventis Pharmaceuticals Inc., priority 1994, dated 2004).

Assays:
Format in all cases: biochemical
human plasmin = target: T1, human plasmin (Homo sapiens, UniProt P00747); assay: Plasmin chromogenic assay; details: Table 2
T1 construct: the enzyme was human plasmin (Kabi); purchased Kabi
Method: (§1) The ability of a compound of the invention to inhibit factor Xa, thrombin, plasmin, elastase and trypsin was assessed by determining the concentration of YIR peptide that inhibits enzyme activity by 50% (IC50). Purified enzymes were used in chromogenic assays. To determine the inhibition constant, the IC50 value was corrected for competition with substrate using the formula:
(§2) Ki=IC50×(1/{1+((substrate concentration)/substrate Km)})
TBS-P buffer was used for this assay. The IC50 was determined as described in Example XXXVII.a., except that the substrate was S-2251 ((D)-Val-L-Leu-L-Lys-p-nitroanilide; Kabi) and the enzyme was human plasmin (Kabi). The enzyme concentration was 5 nM and the substrate concentration was 300 uM.

human thrombin = target: T2, human thrombin (Homo sapiens, UniProt P00734); assay: Thrombin chromogenic assay; details: Table 2
T2 construct: purchased Enzyme Research Laboratories, Inc; South Bend Ind
Method: as §1, §2
TBS-P buffer was used for this assay. The IC50 was determined as described in Example XXXVII.a., except that the substrate was S-2366 (L-PyroGlu-L-Pro-L-Arg-p-nitroanilide; Kabi) and the enzyme was human thrombin (Enzyme Research Laboratories, Inc.; South Bend Ind.). The enzyme concentration was 1 nM and substrate concentration was 175 μM.

[1] = target: T3, bovine pancreatic trypsin (Bos taurus, UniProt P00760); assay: Trypsin chromogenic assay; details: Table 2; * no significant inhibition at the highest concentration tested
T3 construct: purchased Sigma Type XIII, TPCK treated; host or cells: bovine pancreas
T3 sequence (P00760 24-246): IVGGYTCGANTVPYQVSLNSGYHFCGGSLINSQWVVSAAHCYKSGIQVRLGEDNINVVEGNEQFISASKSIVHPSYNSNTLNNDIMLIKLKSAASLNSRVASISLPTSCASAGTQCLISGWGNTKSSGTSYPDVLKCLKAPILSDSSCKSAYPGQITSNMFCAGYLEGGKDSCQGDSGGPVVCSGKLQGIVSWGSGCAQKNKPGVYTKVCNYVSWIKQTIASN
Method: as §1, §2
TBS-P buffer containing 10 mM CaCl2 was used for this assay. The IC50 determination was determined as described in Example XXXVII.a., except that the substrate was BAPNA (Benzoyl-L-Arg-p-nitroanilide; Sigma Chemical Co.; St. Louis Mo.) and the enzyme was bovine pancreatic trypsin (Type XIII, TPCK treated; Sigma). The enzyme concentration was 50 nM and the substrate concentration was 300 μM.

[2] = target: T4, human neutrophil elastase (Homo sapiens, UniProt P08246); assay: Elastase chromogenic assay; details: Table 2
T4 construct: purchased Athens Research and Technology, Inc; Athens Ga
T4 sequence (P08246 30-247 limits assumed): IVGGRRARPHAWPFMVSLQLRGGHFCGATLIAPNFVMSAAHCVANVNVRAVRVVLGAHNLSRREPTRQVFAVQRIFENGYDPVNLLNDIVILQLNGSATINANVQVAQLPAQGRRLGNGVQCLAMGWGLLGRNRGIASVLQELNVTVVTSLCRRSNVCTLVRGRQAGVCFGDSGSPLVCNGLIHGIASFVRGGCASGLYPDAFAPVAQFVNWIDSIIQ
Method: as §1, §2
Tris-Cl, pH 7.4, 300 mM NaCl, 2% (v/v) N-methyl-pyrrolidone, 0.01% (w/v) NaN3 buffer was used for this assay. The IC50 was determined as described in Example XXXVII.a., except that the substrate was succinyl-Ala-Ala-Ala-p-nitroanilide (Calbiochem-Nova Biochem Corp.; San Diego Calif.) and the enzyme was human neutrophil elastase (Athens Research and Technology, Inc.; Athens Ga.). The enzyme concentration was 75 nM and the substrate concentration was 600 μM.

- Ki (human plasmin): > 200 µM
- Ki (human thrombin): > 200 µM
- Ki [1]: > 200 µM
- Ki [2]: > 100 µM
SMILES: CC[C@H](C)[C@H](NC(=O)[C@H](Cc1ccc(O)cc1)NC(C)=O)C(=O)N[C@@H](CCCNC(=N)N)C(=O)N[C@@H](CC(C)C)C(=O)N1CCC[C@H]1C(N)=O [Ac-Y-I-R-L-P, Ac-Tyr-Ile-Arg-Leu-Pro-NH2]
